The record followed here is EP4745138A1, “THIO-GLUTARIMIDO ISOINDOLINONE DERIVATIVE, BIFUNCTIONAL PROTEIN DEGRADER CONTAINING SAME, AND USES THEREOF” (Gluetacs Therapeutics (Shanghai) Co., Ltd., priority 2023, dated 2025).

The test system of this assay is WEE1. The assay can be described thus: Western blot, substrate protein degradation in hPBMC Cell. The format is cell-based, Human. Particulars: substrate protein remaining %, treated at 50 nM and 500 nM, 24 hours. In general terms: In western blotting, separated proteins are transferred to a membrane and probed.

Structures are written as SMILES.

As for `Nc1cccc2c1CN(C1CCC(=O)NC1=O)C2=O` (stereo not shown) [Lenalidomide, lenalidomide, reference compound], the “Degradation of substrate protein WEE1” value is recorded as “B (80%< substrate protein remaining %≤ 100%)”.
